This is an account of results in US20250179059A1 (The Regents of the University of California, priority 2021, published 2025).

Assay [1] has as its target human BRD4 bromodomain II (Homo sapiens, UniProt O60885). Put plainly: Bromodomain binding assay (AlphaScreen), BRD4 BDII. The note with it: read-out: BRD4 BDII IC50, Table C2. On the procedure:
Bromodomain Binding Assay
The bromodomain binding assay utilizes AlphaScreen technology. Compounds compete with a biotinylated peptide ligand (from histone H4: aa 1-21, K5/K8/K12/K16Ac-biotin) for binding to a hexahistidine (His6)-tagged bromodomain. Peptide binding is detected by fluorescence signal after singlet oxygen energy transfer from peptide-bound AlphaScreen streptavidin-coated donor beads to His6-tagged bromodomain-bound nickel-chelate acceptor beads (PerkinElmer). Briefly, 8 μL 2.5× bromodomain (E. coli expressed, N-terminal His6-tagged human BRD4 bromodomain II [based on Genbank NM_058243, residues 349-460] or N-terminal His6-tagged human BRD4 bromodomain I [residues 44-170]) in reaction buffer (50 mM HEPES [pH 7.5], 100 mM NaCl, 0.05% CHAPS, 0.1% BSA, 1% DMSO) is added to wells of an assay plate (384-well low flange white, flat bottom, polystyrene microplate, Corning #3572; buffer only is added to some wells as a negative control). A compound concentration series (10 concentrations, 3-fold serial dilutions previously prepared in 100% DMSO, or 100% DMSO only negative control) is delivered to the assay plate with an Echo 550 acoustic liquid handler (Labcyte), followed by plate centrifugation and incubation for 30 minutes at room temperature. […] AlphaScreen signal (excitation/emission: 680 nm/520-620 nm) is detected with an EnSpire multimode plate reader (PerkinElmer). […]
(In Alpha technology, singlet oxygen from a donor bead excites a nearby acceptor bead.)

The subject of assay [2] is human SKM-1 acute myeloid leukemia cells. The experiment in a line: SKM-1 antiproliferation cell-based assay (ATPlite). The note with it: read-out: SKM-1 GI50; SKM-1 antiproliferation assay, 4 days, Table C2. On the procedure: The cell-based assay indirectly measures cell density (and therefore proliferation and/or survival) by detecting total ATP concentration in a homogeneous format. Briefly, human SKM-1 acute myeloid leukemia cells (Leibniz Institute DSMZ #ACC 547) proliferating in log phase are collected by centrifugation, re-suspended in culture media (RPMI 1640/15% FBS/100 U/mL penicillin/100 μg/mL streptomycin) and diluted to 34722 cells/mL in media after counting. Then 180 μL cells are plated per well into a 96-well tissue-culture treated, clear bottom plate (Coming #3603). A 96-well compound plate (Corning #3357) is then generated by serial dilution of compounds into DMSO over nine concentrations and adding separate negative (DMSO) and positive control (reference compound) wells. Each compound concentration is tested in triplicate. First, 1 μL from each well of the compound plate is added to 99 μL culture media in an intermediate plate and mixed by pipetting. Then 20 μL of the diluted compounds in media are added to the assay plate containing the cells. The assay plate is maintained for 4 days in a standard cell culture incubator. At the end of the incubation period, 100 μL ATPlite Istep (PerkinElmer) is added to the assay plate wells, and the resulting luminescence is detected using an Infinite M1000 or a Spark multimode plate reader (Tecan). Data analysis is performed in Prism (GraphPad Software). […]
For orientation: ATP-based viability assays read luminescence as a measure of living cells.

Each structure is given as a SMILES string.

A word on the IC50: it is the concentration needed to halve the response being measured. Broadly, the GI50 is the concentration that inhibits growth by half. With `CN(C)[C@H]1CCN(c2cc(-c3cc(F)cc(-c4ccc(-n5ccn(C)c5=O)c(Cl)c4)c3O)ccn2)C1`, in assay [1], the IC50 fell in the range of 1 to 10 nM. Also, in assay [2], the GI50 lay in the range of 0.3 to 30 nM.
